The experiment addresses T1, PfDHODH (Plasmodium falciparum, UniProt Q08210).
T1 sequence (Q08210 24-569): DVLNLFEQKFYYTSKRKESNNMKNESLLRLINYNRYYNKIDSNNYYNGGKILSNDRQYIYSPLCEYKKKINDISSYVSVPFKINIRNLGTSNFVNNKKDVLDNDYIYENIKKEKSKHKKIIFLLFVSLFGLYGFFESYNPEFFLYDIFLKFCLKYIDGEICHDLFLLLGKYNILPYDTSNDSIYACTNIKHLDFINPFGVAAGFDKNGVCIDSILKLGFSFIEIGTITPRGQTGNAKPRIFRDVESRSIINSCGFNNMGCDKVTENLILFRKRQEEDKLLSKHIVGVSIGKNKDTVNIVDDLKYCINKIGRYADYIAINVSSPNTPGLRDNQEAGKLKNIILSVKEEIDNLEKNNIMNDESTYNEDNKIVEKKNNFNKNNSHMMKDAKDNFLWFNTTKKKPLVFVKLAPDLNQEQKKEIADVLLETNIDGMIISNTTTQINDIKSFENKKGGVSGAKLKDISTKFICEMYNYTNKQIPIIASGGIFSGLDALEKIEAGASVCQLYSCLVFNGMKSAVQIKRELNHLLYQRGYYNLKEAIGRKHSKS
As to the kind of experiment: biochemical. The following applies: Table 4, IC50 class. As for the experimental part: Briefly, the assay solution contained 100 mM HEPES, pH 8.0, 150 mM NaCl, 10% glycerol, 0.1% Triton X-100, 20 micro molar COQD (coenzyme QD), 200 micro molar L-dihydroorotate, and 120 micro molar DCIP. Reactions are initiated by addition of enzyme to a final concentration in the range of about […] to about 50 nM while maintaining the temperature of a circulating water bath at 25° C.
Assay solutions were prepared as discussed above, except that DCIP is not present and the solution is depleted of oxygen by the inclusion of an oxidase/reductase system, such as, 0.1 mg/ml of glucose oxidase, 0.02 mg/ml catalase and 50 mM glucose. The data obtained is fitted to equation 1, to determine the IC50 values of the representative compounds.

`C=Cc1ccc(Nc2cc(C)nc3ncnn23)cc1` returned an IC50 of less than 2 µM.

For the origin of these results see patent US9216983B2, “Dihydroorotate dehydrogenase inhibitors with selective anti-malarial activity” (BOARD OF REGENTS, UNIVERSITY OF TEXAS SYSTEM, priority 2007, dated 2015).
